Results taken from ChEMBL document CHEMBL3351445, “Potent 11β-hydroxylase inhibitors with inverse metabolic stability in human plasma and hepatic S9 fractions to promote wound healing” (J Med Chem, 2014).

Target: T1, Cytochrome P450 11B2, mitochondrial (Homo sapiens, UniProt P19099)
T1 sequence (P19099 whole entry): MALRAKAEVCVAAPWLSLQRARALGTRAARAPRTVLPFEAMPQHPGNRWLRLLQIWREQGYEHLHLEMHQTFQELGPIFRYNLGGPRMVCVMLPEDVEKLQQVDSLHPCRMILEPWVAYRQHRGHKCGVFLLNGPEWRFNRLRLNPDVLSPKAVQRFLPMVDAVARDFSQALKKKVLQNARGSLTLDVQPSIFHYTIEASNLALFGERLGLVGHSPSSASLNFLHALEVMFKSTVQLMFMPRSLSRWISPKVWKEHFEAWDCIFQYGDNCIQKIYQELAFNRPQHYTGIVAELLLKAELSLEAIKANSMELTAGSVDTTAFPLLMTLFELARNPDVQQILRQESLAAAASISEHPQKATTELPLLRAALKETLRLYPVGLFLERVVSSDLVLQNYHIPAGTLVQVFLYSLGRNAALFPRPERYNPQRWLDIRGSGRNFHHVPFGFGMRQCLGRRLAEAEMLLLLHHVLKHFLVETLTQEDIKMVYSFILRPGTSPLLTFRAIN
Assay: Inhibition of human CYP11B2 expressed in hamster V79MZh cells using [1,2-3H]-11-deoxycorticosterone as substrate

- IC50: 72 nM
Structure (SMILES): CC(C)(C(=O)c1cccnc1)c1cccnc1 [METYRAPONE]
